# Antibody variant affinities, Ab-91 heavy chain, assay 2

From the AlphaSeq antibody data of Engelhart et al. 2022 (doi:10.1038/s41597-022-01779-4), copy in the FLAb collection.

Antigen: PDVDLGDISGINAS, a 14-residue peptide of the SARS-CoV-2 spike HR2 region.

Ab-91 is the parent antibody, in scFv form: VL, then the linker GGGGSGGGGSGGGGS, then VH. The light chain is unchanged in all variants.
VL: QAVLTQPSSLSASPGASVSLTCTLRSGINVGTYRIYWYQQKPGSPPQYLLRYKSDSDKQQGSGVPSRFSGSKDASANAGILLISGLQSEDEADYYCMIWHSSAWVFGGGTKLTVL
VH: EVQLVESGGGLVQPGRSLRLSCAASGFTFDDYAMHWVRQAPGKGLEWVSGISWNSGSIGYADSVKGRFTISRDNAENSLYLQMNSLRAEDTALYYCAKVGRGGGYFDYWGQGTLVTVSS

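Library AAYL51 holds single substitutions and randomly drawn double and triple substitutions in the CDRs. Affinity was read by AlphaSeq, a pooled yeast mating assay with surface-displayed partners. Pairs that bind mate more often; barcode pairs of the diploids are counted by sequencing. Read counts were normalised to the haploid input and turned into Kd by a linear fit to BCL2-family pairs of known affinity, for each replicate. There are three technical replicates.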

Substitutions are numbered in sequence along the VH above, starting at 1 (not Kabat). Each Kd is an estimate from the mating assay, the geometric mean of the replicates in which the pair was seen; lower is stronger. A pair that was not seen in any replicate is written "not detected"; this usually means weak binding, but a binder can also be missed. Nonspecific signal, from three strains lacking the peptide, appeared in 21% of pairings of library AAYL51, centred on 34 µM (5% of these signals below 1.8 µM); values are not corrected for it.

changes | Kd | seen in
F29M+G100A+D107G | 99 nM | 3 of 3
W53Q+V99A+G102K | 41 nM | 3 of 3
D30I+G50M+G104Q | 330 µM | 1 of 3
D31G+G59C+R101E | 250 µM | 1 of 3
F27V+S55T+G100C | 75 µM | 2 of 3
F29L+D31S+D62S | 710 nM | 3 of 3
W53K+Y60P+A61D | not detected | 0 of 3
G50N+D62H+S63L | not detected | 0 of 3
A61T+G100P | not detected | 0 of 3
H35C+G50C+G59C | not detected | 0 of 3
G26I+S57P+V99W | not detected | 0 of 3
S55P+G104A | 130 µM | 3 of 3
V99R+F106R+D107F | not detected | 0 of 3
T28A+S55E+G104M | 83 nM | 3 of 3
A33I+G59D+G104Q | 140 µM | 1 of 3
T28R+G56T+K65F | 210 nM | 3 of 3
D31N+N54K+F106K | not detected | 0 of 3
Y32V+S55D+D107K | 200 µM | 2 of 3
D62C+K65W+R101T | 7.0 µM | 3 of 3
A61I+S63W+G100R | not detected | 0 of 3
S55I+A61H+F106W | not detected | 0 of 3
A33C+Y60L+A61D | 84 µM | 1 of 3
G59L+Y105W | 44 µM | 2 of 3
D31N+D107F | not detected | 0 of 3
M34G+I51N+N54Y | not detected | 0 of 3
R101P+G102H | 20 nM | 1 of 3
N54L+S57I+D62T | 310 µM | 2 of 3
G26I+S57W+S63G | 46 µM | 1 of 3
G56K+Y60R+V99I | not detected | 0 of 3
S52L+G100L+Y108F | 90 µM | 2 of 3
G26A+I58L+Y108L | 330 nM | 3 of 3
D30Y+I58E+K65P | not detected | 0 of 3
I58C+S63V | 400 nM | 3 of 3
S52P+I58K+Y105S | not detected | 0 of 3
N54W+S55P | not detected | 0 of 3
G56M+I58E | 3.2 nM | 3 of 3
W53D+A61W+F106S | 790 µM | 1 of 3
F27E+F29Y+S52P | 56 µM | 3 of 3
G26A+V64Y | not detected | 0 of 3
V64G+G100V+F106H | 21 µM | 1 of 3
G26F+S52E+W53M | not detected | 0 of 3
T28H+N54L+G104K | 3.7 µM | 3 of 3
S52Q+I58N+D62A | 24 µM | 1 of 3
S52V+A61E+F106Q | not detected | 0 of 3
W53L+S57R+Y105G | 12 µM | 2 of 3
A33S+S57F+G104V | 65 µM | 1 of 3
N54W+K65W+R101V | not detected | 0 of 3
D31N+G100E+Y105I | 80 nM | 3 of 3
N54Y+G56Y+D107E | 540 µM | 1 of 3
T28V+M34W+N54F | 1.8 µM | 1 of 3
T28L+A33V+S52V | not detected | 0 of 3
M34W+S55N+G104N | not detected | 0 of 3
H35K+D62L+R101M | not detected | 0 of 3
Y60W+S63D+Y108W | 94 µM | 1 of 3
D31G+S57F+G103H | not detected | 0 of 3
Y60T+D62T+V64H | not detected | 0 of 3

Repeated from above, the 5 best binders with a signal in all replicates:

{"changes": "G56M+I58E", "Kd": "3.2 nM", "seen in": "3 of 3"}
{"changes": "W53Q+V99A+G102K", "Kd": "41 nM", "seen in": "3 of 3"}
{"changes": "D31N+G100E+Y105I", "Kd": "80 nM", "seen in": "3 of 3"}
{"changes": "T28A+S55E+G104M", "Kd": "83 nM", "seen in": "3 of 3"}
{"changes": "F29M+G100A+D107G", "Kd": "99 nM", "seen in": "3 of 3"}

Parent in this assay: reference entry 72 nM, copy in this library 7.5 nM.